In series [1] the test system is hS5 bone marrow-derived stromal cells. The experiment in a line: Hydrogel-encapsulated cell release studies. The format is cell-based, human. The following applies: R gels BME 0.25 mM 45 minutes; P gels UV 10 minutes; E gels MMP-8 0.20 nM 60 minutes. On the procedure:
Four human bone marrow-derived stromal cell lines [hS5], including one non-fluorescent control and three each stably transfected to express a single fluorescent protein [mCherry, green fluorescent protein (GFP), or blue fluorescent protein (BFP)], were cultured at 37° C. in Roswell Park Memorial Institute medium 1640 (RPMI-1640, Corning) supplemented with 10% FBS and 1% PS.
Hydrogels were formed sandwiched between an azide-functional glass slide and a Rain-X®-treated glass slide separated by two 0.005″ thick silicone spacers (McMaster-Carr). A precursor solution containing PEG-tetraBCN (Method S22, 2 mM), the P crosslinker (Method S7, 4 mM), and hS5-GFP^+ (40×10^6 cells mL^−1) was injected between the silicone spacers and reacted for one hour. […]
Following each degradative step, cells that remained encapsulated in the intact gel were imaged using fluorescent confocal microscopy. Three channels—one for each fluorescent protein—were simultaneously monitored. For visualization, fluorescence corresponding to mCherry (excitation 587 nm, emission 626-703 nm), GFP (excitation 489 nm, emission 499-570 nm), and BFP (excitation 405 nm, emission 413-494 nm) were false colored as red, green, and blue, respectively. […]
Gels were degraded and the viability of the released cells was assessed. […]

The nature of series [2]: Logic-based hydrogel degradation in response to sequential stimuli (supernatant fluorescence). The following applies: all eight input combinations of reductant, MMP enzyme and light; endpoint supernatant fluorescence.

“N3—(CH2)3CONH-RGC(N3—(CH2)3CONH-RGC-NH2)—NH2”: in series [1], the “Gel degradation for viability studies” value is recorded as “complete hydrogel degradation”. Further, the Hydrogel degradation response entry in series [2] was “degrading only when the programmed cue was present”.

These data come from patent US20250135016A1, “MOLECULAR LOGIC GATES FOR CONTROLLED MATERIAL DEGRADATION” (University of Washington, priority 2016, published 2025).
